The record followed here is PMC10503972, “Synthesis, predictions of drug-likeness, and pharmacokinetic properties of some chiral thioureas as potent enzyme inhibition agents” (Turkish Journal of Chemistry, 2021).

In the assay the target is urease (Canavalia ensiformis, UniProt P07374). The note with it: read-out: Urease assay IC50; means ± S.E.M. of three parallel measurements.
Take “N-(2,4-dimethoxyphenyl)-N′-(2-mercapto-carboxyethanyl)thiourea [Compound 10]”: the IC50 turned out to be 20.9 ± 1 µM.

In the case of “N-(2,5-dichlorophenyl)-N′-(2-mercapto-carboxyethanyl)thiourea [Compound 15]”, the IC50 was found to be 55.4 ± 1.3 µM. In the case of “N-(2,5-dimethoxyphenyl)-N′-(2-mercapto-carboxyethanyl)thiourea [Compound 11]”, the half-maximal inhibitory concentration (IC50) was found to be 22.1 ± 0.1 µM. Next, “N-(2-chloro-5-(trifluoromethyl)phenyl)-N′-(2-mercapto-carboxyethanyl)thiourea [Compound 9]”: 50.2 ± 0.1 µM; “N-(3,4,5-trimethoxyphenyl)-N′-(2-mercapto-carboxyethanyl)thiourea [Compound 14]”: 13.4 ± 0.8 µM; “N-(3,4-dimethoxyphenyl)-N′-(2-mercapto-carboxyethanyl)thiourea [Compound 12]”: 26.5 ± 0.4 µM. Consider “N-(3,5-dimethoxyphenyl)-N′-(2-mercapto-carboxyethanyl)thiourea [Compound 13]”, for which the IC50 is 16.5 ± 0.6 µM. Consider “N-(4-(dimethylamino)phenyl)-N′-(2-mercapto-carboxyethanyl)thiourea [Compound 16]”, for which the IC50 stood at 44.3 ± 1.1 µM. Turning to “N-(4-(trifluoromethyl)phenyl)-N′-(2-mercapto-carboxyethanyl)thiourea [Compound 5]”, the IC50 turned out to be 46.2 ± 0.7 µM. “N-(4-bromophenyl)-N′-(2-mercapto-carboxyethanyl)thiourea [Compound 2]”: the IC50 is 66.1 ± 0.7 µM. Turning to “N-(4-chlorophenyl)-N′-(2-mercapto-carboxyethanyl)thiourea [Compound 3]”, the IC50 was 58.2 ± 0.4 µM. On to “N-(4-cyanophenyl)-N′-(2-mercapto-carboxyethanyl)thiourea [Compound 7]”, for which the IC50 came to 68.3 ± 0.5 µM. For “N-(4-fluorophenyl)-N′-(2-mercapto-carboxyethanyl)thiourea [Compound 4]”, the IC50 came to 61.5 ± 0.3 µM. For the substance “N-(4-methoxyphenyl)-N′-(2-mercapto-carboxyethanyl)thiourea [Compound 6]”, the IC50 is 31.3 ± 0.2 µM. As for “N-(5-chloro-2-methoxyphenyl)-N′-(2-mercapto-carboxyethanyl)thiourea [Compound 8]”, the IC50 was found to be 34.8 ± 0.2 µM. For “N-phenyl-N′-(2-mercapto-carboxyethanyl)thiourea [Compound 1]”, the IC50 worked out at 64.6 ± 0.4 µM.
